This note sets out measurements from patent US20090305321A1, “Assays for Allosteric Modulators of G-Protein Coupled Receptors (GPCRs)” (ASTRAZENECA AB, priority 2005, published 2009).

Sequences of proteins named here, by UniProt entry; tags and fusion partners are left off. Residues count along the entry.
UniProt P51681, whole entry: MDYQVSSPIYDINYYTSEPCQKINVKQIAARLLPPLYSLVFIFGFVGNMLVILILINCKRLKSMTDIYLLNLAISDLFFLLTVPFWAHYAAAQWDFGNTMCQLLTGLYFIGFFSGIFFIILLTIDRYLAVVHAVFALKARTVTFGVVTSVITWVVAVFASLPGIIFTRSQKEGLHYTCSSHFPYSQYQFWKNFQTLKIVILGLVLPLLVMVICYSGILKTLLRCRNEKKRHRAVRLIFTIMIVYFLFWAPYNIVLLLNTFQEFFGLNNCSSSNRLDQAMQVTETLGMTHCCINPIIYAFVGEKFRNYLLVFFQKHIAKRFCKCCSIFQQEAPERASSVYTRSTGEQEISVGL
UniProt P32248, 25-378: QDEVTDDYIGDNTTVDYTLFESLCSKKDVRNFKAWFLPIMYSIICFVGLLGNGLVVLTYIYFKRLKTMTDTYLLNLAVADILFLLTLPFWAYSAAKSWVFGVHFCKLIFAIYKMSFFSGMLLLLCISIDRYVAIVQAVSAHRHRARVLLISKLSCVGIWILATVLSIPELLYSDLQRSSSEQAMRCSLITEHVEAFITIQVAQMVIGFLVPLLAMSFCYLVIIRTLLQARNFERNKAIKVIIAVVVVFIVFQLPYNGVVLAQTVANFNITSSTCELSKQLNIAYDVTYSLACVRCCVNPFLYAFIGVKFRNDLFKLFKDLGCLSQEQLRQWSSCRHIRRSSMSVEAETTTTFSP
UniProt P25025, whole entry: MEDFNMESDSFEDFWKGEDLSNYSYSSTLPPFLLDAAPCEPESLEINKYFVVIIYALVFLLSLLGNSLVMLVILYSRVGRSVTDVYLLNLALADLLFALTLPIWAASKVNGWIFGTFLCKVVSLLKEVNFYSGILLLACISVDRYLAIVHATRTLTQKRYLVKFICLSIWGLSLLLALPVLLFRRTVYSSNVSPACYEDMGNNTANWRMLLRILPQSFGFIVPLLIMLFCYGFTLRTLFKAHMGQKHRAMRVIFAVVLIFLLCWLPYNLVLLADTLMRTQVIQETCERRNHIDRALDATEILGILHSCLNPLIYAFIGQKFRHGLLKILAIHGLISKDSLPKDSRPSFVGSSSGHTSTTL

The target in one assay is T1, CCR1 (Homo sapiens, UniProt P32246).
T1 sequence (P32246 1-355): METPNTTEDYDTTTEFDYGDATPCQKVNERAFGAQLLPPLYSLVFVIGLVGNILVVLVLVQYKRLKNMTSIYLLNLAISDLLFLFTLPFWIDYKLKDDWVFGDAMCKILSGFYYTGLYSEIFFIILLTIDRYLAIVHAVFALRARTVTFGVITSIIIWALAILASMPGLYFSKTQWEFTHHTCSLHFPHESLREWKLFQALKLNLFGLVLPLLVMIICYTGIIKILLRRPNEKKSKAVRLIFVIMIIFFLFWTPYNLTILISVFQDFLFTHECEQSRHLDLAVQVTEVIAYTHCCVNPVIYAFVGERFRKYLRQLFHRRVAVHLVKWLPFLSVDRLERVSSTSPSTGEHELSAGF
Briefly: Chemokine receptor panel (assays similar to Example 1 and 2), CCR1. The class given is binding. To be noted: read-out: Inhibition at 10 uM.

The target in a further assay is T2, CCR2b (Homo sapiens, UniProt P41597).
T2 sequence (P41597 1-360 isoform P41597-2): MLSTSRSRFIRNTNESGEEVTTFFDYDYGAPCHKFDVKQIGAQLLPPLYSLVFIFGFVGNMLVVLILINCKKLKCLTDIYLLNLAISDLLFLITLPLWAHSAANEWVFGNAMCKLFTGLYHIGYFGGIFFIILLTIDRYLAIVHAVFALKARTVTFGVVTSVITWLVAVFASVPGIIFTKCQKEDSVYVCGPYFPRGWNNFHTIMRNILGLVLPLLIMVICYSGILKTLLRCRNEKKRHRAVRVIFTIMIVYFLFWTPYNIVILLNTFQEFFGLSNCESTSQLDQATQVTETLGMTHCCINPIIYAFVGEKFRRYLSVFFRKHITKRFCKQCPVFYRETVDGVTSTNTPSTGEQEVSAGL
Description: Chemokine receptor panel (assays similar to Example 1 and 2), CCR2b. The class given is binding.

The next assay deals with T3, CCR4 (Homo sapiens, UniProt P51679).
T3 sequence (P51679 1-360): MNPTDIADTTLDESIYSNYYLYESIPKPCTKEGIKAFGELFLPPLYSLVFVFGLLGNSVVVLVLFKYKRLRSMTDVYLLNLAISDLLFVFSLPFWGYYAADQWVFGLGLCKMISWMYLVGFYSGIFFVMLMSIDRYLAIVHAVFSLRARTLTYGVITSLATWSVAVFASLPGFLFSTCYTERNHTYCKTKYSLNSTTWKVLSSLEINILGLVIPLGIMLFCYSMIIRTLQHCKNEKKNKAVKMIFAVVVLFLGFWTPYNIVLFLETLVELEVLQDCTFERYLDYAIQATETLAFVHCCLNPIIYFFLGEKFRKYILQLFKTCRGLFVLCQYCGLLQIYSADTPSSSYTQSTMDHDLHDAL
Description: Chemokine receptor panel (assays similar to Example 1 and 2), CCR4. The class given is binding. The protocol: (§1) Membranes (80 μL of 1×10^6 cell equivalents/mL) were then added, giving a total incubation volume of 100 μL per well. The plates were incubated for 2 hours at room temperature.
(§2) HEK 293 transfectants were seeded at 5×10^4 cells per well in 96 well poly-D lysine coated black with clear bottom plates (Becton Dickinson) and cultured for 16 h at 37° C. with an atmosphere of 5% CO2/95% air to form confluent monolayers. The following day cells were loaded with 5 μM Flura 3 AM diluted in tyrodes solution (137 mM NaCl, 10 mM HEPES, 0.441 mM KH2PO4, 2.67 mM KCl, 1.8 mM CaCL2, 1 mM MgCl2) with 6.25 mM probenecid at pH7.4, 100 μl per well and incubated at 37° C. with an atmosphere of 5% CO2/95% air for 1 h. After which the loading media was removed and the cells washed twice with PBS/HEPES solution (100 μl per well) then overlayed with 50 μl assay buffer (tyrodes buffer without probenecid). 50 μl inhibitor compound or 50 μl 0.2% (v/v) DMSO carrier diluted in assay buffer was then added per well and incubated for 30 minutes at room temperature before the addition of 50 μl 3 mM Carbachol per well. Calcium flux responses were measured using a Fluorometric Imaging Plate Reader (Molecular Devices) for 3 minutes before the addition of either IL-8 (50 μl, 1×10^−7-3×10^−11 M final concentration) or GROalpha. […] Fluorescence readings were taken every 2 seconds for a total run time of 6 minutes.

A further assay deals with CCR5 (Homo sapiens, UniProt P51681). Briefly: Chemokine receptor panel (assays similar to Example 1 and 2), CCR5. The class given is binding. To be noted: read-out: Inhibition at 10 uM. How it is done:
as §1, §2

For the next assay, the target named is CCR7 (Homo sapiens, UniProt P32248). Description: biochemical. How it is done: as §1, §2
The target in a further assay is CXCR2 (Homo sapiens, UniProt P25025). Briefly: biochemical. The protocol: as §1, §2
The target of another assay is T4, CX3CR1 (Homo sapiens, UniProt P49238).
T4 sequence (P49238 1-355): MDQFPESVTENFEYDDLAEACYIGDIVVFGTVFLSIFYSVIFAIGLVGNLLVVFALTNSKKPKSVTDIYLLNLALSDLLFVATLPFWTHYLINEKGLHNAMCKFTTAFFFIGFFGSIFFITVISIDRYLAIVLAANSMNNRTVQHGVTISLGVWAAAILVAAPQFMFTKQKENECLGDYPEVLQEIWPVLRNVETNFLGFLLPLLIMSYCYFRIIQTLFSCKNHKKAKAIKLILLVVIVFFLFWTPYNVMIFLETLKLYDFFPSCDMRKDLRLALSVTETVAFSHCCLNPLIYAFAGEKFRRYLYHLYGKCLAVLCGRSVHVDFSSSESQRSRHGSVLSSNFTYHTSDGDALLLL
Briefly: biochemical.

`CC[C@H](CO)Nc1nc(SCc2ccccc2)nc2[nH]c(=O)sc12` [Compound F]: the inhibition at 10 µM on CCR1 was 46%; at CCR5, 100%. Besides, the IC50 is 398 nM at CCR2b; 3.98 µM at CCR4; 2000 nM on CCR7; 20 nM on CXCR2; 1000 nM against CX3CR1.
